Values of other authors, collected in patent US9782400B2, “Oncogenic ROS1 and ALK kinase inhibitor” (Macau University of Science and Technology, priority 2015, dated 2017).

Tested on: ROS1-positive NSCLC
Conditions: NSCLC patients harboring ROS1 rearrangements; cited from earlier work

## C[C@@H](Oc1cc(-c2cnn(C3CCNCC3)c2)cnc1N)c1c(Cl)ccc(F)c1Cl [crizotinib]
  median duration of response: 17.6 months
